Measurements reported in BindingDB's records for patent US9694016 (Novartis AG, 2017).

Sequences of proteins named here, by UniProt entry; tags and fusion partners are left off.
UniProt P04049, whole entry Y340E/Y341E: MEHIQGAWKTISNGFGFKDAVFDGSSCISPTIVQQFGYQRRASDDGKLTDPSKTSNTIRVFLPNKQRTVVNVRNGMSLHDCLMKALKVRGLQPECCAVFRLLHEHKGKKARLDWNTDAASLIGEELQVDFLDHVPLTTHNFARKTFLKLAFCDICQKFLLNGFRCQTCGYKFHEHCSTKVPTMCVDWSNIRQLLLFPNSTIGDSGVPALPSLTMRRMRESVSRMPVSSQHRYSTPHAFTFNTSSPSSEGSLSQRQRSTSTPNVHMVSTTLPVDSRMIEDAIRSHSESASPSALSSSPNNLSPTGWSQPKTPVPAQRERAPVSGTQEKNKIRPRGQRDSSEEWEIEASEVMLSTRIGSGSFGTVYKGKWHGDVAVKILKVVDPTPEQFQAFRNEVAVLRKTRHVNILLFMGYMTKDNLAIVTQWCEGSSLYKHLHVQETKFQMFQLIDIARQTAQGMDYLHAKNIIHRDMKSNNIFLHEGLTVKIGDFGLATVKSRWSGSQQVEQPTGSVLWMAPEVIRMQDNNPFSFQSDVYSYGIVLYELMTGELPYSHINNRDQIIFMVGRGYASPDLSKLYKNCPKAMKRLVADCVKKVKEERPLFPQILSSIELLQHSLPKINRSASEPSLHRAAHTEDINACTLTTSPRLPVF

Target: RAF proto-oncogene serine/threonine-protein kinase [Y340E,Y341E] (Human, UniProt P04049, Y340E/Y341E)
Assay: Raf Activity Assay
Conditions: pH 7.5; 25 °C

- pIC50: 9.01
SMILES: Cc1ncc(NC(=O)c2cccc(C(F)(F)F)c2)cc1-c1c[nH]c(=O)c(N2CCOCC2)c1 [US9694016, 988]

pIC50: −log10 of the molar value.
